Assay results reported in patent US12172975B2, “1H-indazole carboxamides as receptor-interacting protein kinase 1 inhibitors (RIPK1)” (BRISTOL-MYERS SQUIBB COMPANY, priority 2018, dated 2024).
pIC50: −log10 of the molar value. Where a name gives a salt, the structure may show the parent alone. Read-outs that look alike come from different tables or passages of the source.

Test system: MLKL phosphorylation in HT29-L23 human colorectal adenocarcinoma cells
Test: MLKL Phosphorylation High-Content Assay
Type: cell-based
Conditions: 6 h, necroptosis induced with TNFα, SMAC mimetic and Z-VAD, read-out: pMLKL (IC50)
Method: MLKL Phosphorylation High-Content Assay
HT29-L23 human colorectal adenocarcinoma cells were maintained in RPMI 1640 medium containing 10% heat-inactivated FBS, 1% Penicillin-Streptomycin and 10 mM HEPES. Cells were seeded at 2,000 cells/well in 384 well tissue culture-treated microplates (Greiner #781090-3B) and incubated at 37° C. (5% CO2/95% O2) for 2 d. […] (5% CO2/95% O2). Necroptopsis was induced using a mixture of human TNFα (35 ng/mL) (Peprotech #300-01A), SMAC mimetic (from US 2015/0322111 A1) (700 nM) and Z-VAD ([…]) (BD pharmingen #51-6936). Following 6 h incubation at 37° C. (5% CO2/95% O2), the cells were fixed with 4% formaldehyde (ACROS 11969-0010) for 15 min at rt, then permeabilized with phosphate buffered saline (PBS) containing 0.2% Triton-X-100 for 10 min. MLKL phosphorylation was detected using anti-MLKL (phospho S358) antibody (Abeam #ab 187091) (1:1000 dilution in Blocking Buffer [PBS supplemented with 0.1% BSA]) with ON incubation at 4° C. After washing three times in PBS, goat anti-rabbit Alexa-488 (1:1000 dilution) (Life Technologies, A11008) and Hoechst 33342 (Life Technologies, H3570) (1:2000 dilution) in Blocking Buffer were added for 1 h at rt.
Following another three cycles of washes in PBS, the microplates were sealed, and cellular images were acquired in the Cellomics ArrayScan VTI high-content imager equipped with an X1 camera. Fluorescent images were taken using a 10× objective and the 386-23 BGRFRN_BGRFRN and 485-20 BGRFRN_BGRFRN filter sets, for nuclei and MLKL phosphorylation, respectively. The image sets were analyzed using the Compartmental Analysis Bioapplication software (Cellomics). The level of MLKL phosphorylation was quantified as MEAN_CircRingAvglntenRatio. The maximal inhibitory response was defined by the activity induced by Neels (CAS #: 852391-15-2, 6.25 μM). […] The data were fitted using the 4-parameter logistic equation to calculate the IC50 and Ymax values.

Row | SMILES | pIC50 (Homo sapiens) | pIC50
1 | CNC(=O)c1n[nH]c2cc(-c3cnc(OC)c(C(=O)NC(C)c4ccccc4C(F)(F)F)c3)ccc12 (single isomer, unassigned) [Example 129, 6-[6-methoxy-5-({1-[2-(tri-fluoromethyl)phenyl]ethyl}-carbamoyl)pyridin-3-yl]-N-methyl-1H-indazole-3-carboxamide] | 8.05 | –
2 | COc1ncc(-c2ccc3c(C(=O)N[C@@H](C)C4CC4)n[nH]c3c2)cc1C(=O)NCc1ccccc1OC(F)(F)F [Ex 173] | – | 7.18
3 | CNC(=O)c1n[nH]c2cc(-c3cnc(OC)c(C(=O)NC[C@H]4C[C@@H]4c4ccc(F)cc4)c3)ccc12 [Example 44, 6-[5-({[(1S,2S)-2-(4-fluoro-phenyl)cyclopropyl]methyl}-carbamoyl)-6-methoxypyridin-3-yl]-N-methyl-1H-indazole-3-carboxamide] | – | 7.54
4 | CNC(=O)c1n[nH]c2cc(-c3cnc(OC)c(C(=O)NCc4ccc(F)cc4OC4CCOCC4)c3)ccc12 [Example 50, 6-[5-({[4-fluoro-2-(oxan-4-yl-oxy)phenyl]methyl}carbam-oyl)-6-methoxypyridin-3-yl]-N-methyl-1H-indazole-3-carboxamide] | – | 8.15
5 | CNC(=O)c1n[nH]c2cc(-c3cnc(OC)c(C(=O)NC[C@H]4C[C@H]4c4ccccc4)c3)ccc12 [Example 51, 6-[6-methoxy-5-({[(1S,2R)-2-phenylcyclopropyl]methyl}-carbamoyl)pyridin-3-yl]-N-methyl-1H-indazole-3-carbox-amide] | – | 9.05
6 | CNC(=O)c1n[nH]c2cc(-c3cnc(OC)c(C(=O)NC[C@@H]4C[C@@H]4c4ccccc4)c3)ccc12 [Example 52, 6-[6-methoxy-5-({[(1R,2S)-2-phenylcyclopropyl]methyl}-carbamoyl)pyridin-3-yl]-N-methyl-1H-indazole-3-carbox-amide] | – | 8.00
7 | CNC(=O)c1n[nH]c2cc(-c3cnc(OC)c(C(=O)NCc4ccccc4N4CCOCC4)c3)ccc12 [Example 53] | – | 8.00
8 | CNC(=O)c1n[nH]c2cc(-c3cnc(OC)c(C(=O)NCc4ccccc4OCC(C)C)c3)ccc12 [Example 59, 6-[6-methoxy-5-({[2-(2-meth-ylpropoxy)phenyl]methyl}-carbamoyl)pyridin-3-yl]-N-methyl-1H-indazole-3-carbox-amide] | – | 8.96
9 | CNC(=O)c1n[nH]c2cc(-c3cnc(OC)c(C(=O)NCc4ccccc4S(C)(=O)=O)c3)ccc12 [Example 66, 6-(5-{[(2-methanesulfonyl-phenyl)methyl]carbamoyl}-6-methoxypyridin-3-yl)-N-methyl-1H-indazole-3-carbox-amide] | – | 6.46
10 | CCCS(=O)(=O)c1ccccc1CNC(=O)c1cc(-c2ccc3c(C(=O)NC)n[nH]c3c2)cnc1OC [Example 69, 6-[6-methoxy-5-({[2-(propane-1-sulfonyl)phenyl]methyl}-carbamoyl)pyridin-3-yl]-N-methyl-1H-indazole-3-carbox-amide] | – | 7.59
11 | CNC(=O)c1n[nH]c2cc(-c3cnc(OC)c(C(=O)NCc4ccccc4OC(F)F)c3)ccc12 [Example 78, 6-[5-({[2-(difluoromethoxy)-phenyl]methyl}carbamoyl)-6-methoxypyridin-3-yl]-N-methyl-1H-indazole-3-carbox-amide] | – | 7.96
12 | CNC(=O)c1n[nH]c2cc(-c3cnc(OC)c(C(=O)NCc4ccccc4S(=O)(=O)C(C)C)c3)ccc12 [Example 80, 6-[6-methoxy-5-({[2-(propane-2-sulfonyl)phenyl]methyl}-carbamoyl)pyridin-3-yl]-N-methyl-1H-indazole-3-carbox-amide] | – | 7.70
13 | CNC(=O)c1n[nH]c2cc(-c3cnc(OC)c(C(=O)NCC4CCCCC4(C)C)c3)ccc12 (stereo not shown) [Example 81, 6-(5-{[(2,2-dimethylcyclo-hexyl)methyl]carbamoyl}-6-methoxypyridin-3-yl)-N-methyl-1H-indazole-3-carbox-amide] | – | 7.66
14 | CNC(=O)c1n[nH]c2cc(-c3cnc(OC)c(C(=O)NCc4ccccc4S(=O)(=O)NC4CC4)c3)ccc12 [Example 85, 6-[5-({[2-(cyclopropylsulfam-oyl)phenyl]methyl}carbam-oyl)-6-methoxypyridin-3-yl]-N-methyl-1H-indazole-3-carboxamide] | – | 7.14
15 | CNC(=O)c1n[nH]c2cc(-c3cnc(OC)c(C(=O)NCc4cccc(OC(F)(F)F)c4)c3)ccc12 [Example 92] | – | 7.92
16 | CNC(=O)c1n[nH]c2cc(-c3cnc(OC)c(C(=O)NC(C)c4cccc(OC(F)(F)F)c4)c3)ccc12 (stereo not shown) [Example 97, 6-[6-methoxy-5-({1-[3-(tri-fluoromethoxy)phenyl]ethyl}-carbamoyl)pyridin-3-yl]-N-methyl-1H-indazole-3-carbox-amide] | – | 7.92
17 | CNC(=O)c1n[nH]c2cc(-c3cnc(OC)c(C(=O)NCc4cccc(C(F)(F)F)c4)c3)ccc12 [Example 102, 6-[6-methoxy-5-({[3-(trifluoro-methyl)phenyl]methyl}carbam-moyl)pyridin-3-yl]-N-methyl-1H-indazole-3-carboxamide] | – | 7.14
18 | CNC(=O)c1n[nH]c2cc(-c3cnc(OC)c(C(=O)NCC(F)(F)COC(C)C)c3)ccc12 [Example 103, 6-(5-{[2,2-difluoro-3-(propan-2-yloxy)propyl]carbamoyl}-6-methoxypyridin-3-yl)-N-methyl-1H-indazole-3-carbox-amide] | – | 7.40
19 | CNC(=O)c1n[nH]c2cc(-c3cnc(OC)c(C(=O)NC(C)c4ccc(F)c(C(F)(F)F)c4)c3)ccc12 (stereo not shown) [Example 105, 6-[5-({1-[4-fluoro-3-(trifluoro-methyl)phenyl]ethyl}carbam-oyl)-6-methoxypyridin-3-yl]-N-methyl-1H-indazole-3-carboxamide] | – | 6.74
20 | CNC(=O)c1n[nH]c2cc(-c3cnc(OC)c(C(=O)NCc4cccc(OCC5CC5)c4)c3)ccc12 [Example 106, 6-[5-({[3-(cyclopropylmeth-oxy)phenyl]methyl}carbamoyl)-6-methoxypyridin-3-yl]-N-methyl-1H-indazole-3-carbox-amide] | – | 7.54
21 | CNC(=O)c1n[nH]c2cc(-c3cnc(OC)c(C(=O)NCc4cccc(OC5CCCC5)c4)c3)ccc12 [Example 107, 6-[5-({[3-(cyclopentyloxy)-phenyl]methyl}carbamoyl)-6-methoxypyridin-3-yl]-N-methyl-1H-indazole-3-carbox-amide] | – | 7.14
22 | CNC(=O)c1n[nH]c2cc(-c3cnc(OC)c(C(=O)NC(C)c4ccccc4C(F)(F)F)c3)ccc12 (stereo not shown) [Example 109, 6-[6-methoxy-5-({1-[2-(tri-fluoromethyl)phenyl]ethyl}-carbamoyl)pyridin-3-yl]-N-methyl-1H-indazole-3-carbox-amide] | – | 7.82
23 | CNC(=O)c1n[nH]c2cc(-c3cnc(OC)c(C(=O)NCc4ccccc4OCC4CCCC4)c3)ccc12 [Example 110, 6-[5-({[2-(cyclopentylmeth-oxy)phenyl]methyl}carbam-oyl)-6-methoxypyridin-3-yl]-N-methyl-1H-indazole-3-carboxamide] | – | 8.14
24 | CNC(=O)c1n[nH]c2cc(-c3cnc(OC)c(C(=O)NCc4cccc(OC(C)C)c4)c3)ccc12 [Example 111, 6-[6-methoxy-5-({[3-(propan-2-yloxy)phenyl]methyl}-carbamoyl)pyridin-3-yl]-N-methyl-1H-indazole-3-carbox-amide, TFA] | – | 7.70
25 | CNC(=O)c1n[nH]c2cc(-c3cnc(OC)c(C(=O)NCc4cccc(C(F)(F)F)c4F)c3)ccc12 [Example 114, 6-[5-({[2-fluoro-3-(trifluoro-methyl)phenyl]methyl}carbam-oyl)-6-methoxypyridin-3-yl]-N-methyl-1H-indazole-3-carboxamide] | – | 6.70
26 | CNC(=O)c1n[nH]c2cc(-c3cnc(OC)c(C(=O)NCC4(C(=O)OC5CCCCC5)CC4)c3)ccc12 [Example 133, cyclohexyl 1-[({2-methoxy-5-[3-(methylcarbamoyl)-1H-indazol-6-yl]pyridin-3-yl}-formamido)methyl]cyclopro-pane-1-carboxylate, TFA] | – | 7.24
27 | [2H]C([2H])([2H])NC(=O)c1n[nH]c2cc(-c3cnc(OC)c(C(=O)NC(C)c4cccc(OC(F)(F)F)c4)c3)ccc12 (stereo not shown) [Example 151, 6-[6-methoxy-5-({1-[3-(tri-fluoromethoxy)phenyl]ethyl}-carbamoyl)pyridin-3-yl]-N-(deutero)methyl-1H-indazole-3-carboxamide] | 7.62 | –
28 | CNC(=O)c1n[nH]c2cc(-c3cnc(OC)c(C(=O)N[C@H](C)c4cc(C(F)(F)F)ccc4F)c3)ccc12 [Example 215] | – | 7.80
